From patent US10023592B2, “Bromodomain inhibitors” (Celgene Quanticel Research, Inc., priority 2013, dated 2018) come the findings set out here.

Assay [1] has as its system Raji, human Burkitts lymphoma cells. Briefly: Cell-MTS proliferation assay, Raji. The assay is classed as cell-based. As to conditions: 168 hr, class symbols A/B/C. The procedure: (§1) The Cell-MTS assay is a 7-day plate-based colorimetric assay which quantifies the amount of newly generated NADH in the presence or absence of test compound. The NADH level is used for the quantification of cancer cell proliferation.
(§2) Established cancer cell lines with a variety of driving mutations were obtained from American Type Culture Collection (ATCC) and routinely passaged according to ATCC protocols. For routine assay, these cells were seeded at densities which enabled ˜90% confluence after 7 days of culture. Raji, human Burkitts lymphoma cells, (cMYC) were seeded at 15,000 cells per 96-well. HL-60, human proleukemia cells, (NRAS, p16, p53, c-Myc amplified) were seeded at 5,000 cells per 96-well. NCI-H460, human non-small cell lung cancer cells, (KRAS, PIK3CA, STLK11, p16) were seeded at 3,000 cells per 96-well. 24 hr after plating, cells received an 11-point dilution of test compound with final concentration ranges from 100 μM to 2.0 nM. […] At the end of this incubation period, 80 μL of media is removed and 20 μL of CellTiter 96® AQueous Non-Radioactive Cell Proliferation Assay soln (Promega) was added. The cells were incubated until the OD490 was >0.6. IC50 values were calculated using the IDBS XLfit software package and include background subtracted OD490 values and normalization to DMSO controls. […]
(Tetrazolium assays rely on reduction of a dye to a coloured formazan, in cell work by metabolically active cells.)

The test system of assay [2] is HL-60, human proleukemia cells. Briefly: Cell-MTS proliferation assay, HL-60. Type of assay: cell-based. As to conditions: 168 hr, class symbols A/B/C. The procedure:
as §1, §2

Assay [3] concerns the target BRD4(BD1) (Homo sapiens (Human), UniProt O60885). Briefly: In vitro enzyme inhibition assay (BRD4 AlphaScreen). Type of assay: binding. The procedure:
His-tagged BRD4 was cloned, expressed and purified to homogeneity. […] BRD4 binding and inhibition was assessed by monitoring the interaction of biotinylated H4-tetraacetyl peptide (AnaSpec, H4K5/8/12/16(Ac), biotin-labeled) with the target using the AlphaScreen technology (Life Technologies). […] After 20 min incubation at room temp, Alpha streptavidin donor beads and Nickel Chelate acceptor beads were added to a final concentration of 5 μg/mL.
The ability of the compounds disclosed herein to inhibit BRD4 activity was quantified and the respective IC50 value was determined.

In assay [4] the test system is NCI-H460, human non-small cell lung cancer cells. Briefly: Cell-MTS proliferation assay, NCI-H460. As to conditions: 168 hr, class symbols A/B/C. Type of assay: cell-based. The procedure:
as §1, §2

By IC50 is commonly meant the midpoint of a concentration-inhibition curve. Low values mean inhibition by little substance, high ones a need for much substance. As to `CCS(=O)(=O)Nc1cccc(-c2cn(C)c(=O)c3ccccc23)c1` [Example 13, N-[3-(2-methyl-1-oxoisoquinolin-4-yl)phenyl]ethanesulfonamide], the IC50 in assay [1] and in assay [2] was less than 500 nM throughout.
Regarding `CCCCc1cnc(NS(=O)(=O)CC)nc1-c1ccc(=O)n(C)c1` [Example 358, N-[5-butyl-4-(1-methyl-6-oxopyridin-3-yl)pyrimidin-2-yl]ethanesulfonamide], the half-maximal inhibitory concentration (IC50) in assay [3] is less than 500 nM.
As for `CCS(=O)(=O)Nc1cccc(-c2cn(C)c(=O)c3ccc(C)cc23)c1` [Example 75, N-[3-(2,6-dimethyl-1-oxoisoquinolin-4-yl)phenyl]ethanesulfonamide], the IC50 is less than 500 nM in assay [1], less than 500 nM in assay [2] and more than 5000 nM in assay [4].
